Measured values: publication PMC4661386, “Metal Ion-dependent Heavy Chain Transfer Activity of TSG-6 Mediates Assembly of the Cumulus-Oocyte Matrix*” (The Journal of Biological Chemistry, 2015)

Key:
[1] = biological target: T1, Recombinant human heavy chain 1 (rHC1) of inter-alpha-inhibitor, wild type (human, UniProt P19827 35-672); test: SPR; rHC1 (WT or D298A) immobilised on a C1 chip; Link_TSG6 flowed over at a range of concentrations in HBS-T; multicycle kinetics, 1:1 Langmuir model; settings: both partners purified
T1 construct: also called WT rHC1
T1 sequence (looked up): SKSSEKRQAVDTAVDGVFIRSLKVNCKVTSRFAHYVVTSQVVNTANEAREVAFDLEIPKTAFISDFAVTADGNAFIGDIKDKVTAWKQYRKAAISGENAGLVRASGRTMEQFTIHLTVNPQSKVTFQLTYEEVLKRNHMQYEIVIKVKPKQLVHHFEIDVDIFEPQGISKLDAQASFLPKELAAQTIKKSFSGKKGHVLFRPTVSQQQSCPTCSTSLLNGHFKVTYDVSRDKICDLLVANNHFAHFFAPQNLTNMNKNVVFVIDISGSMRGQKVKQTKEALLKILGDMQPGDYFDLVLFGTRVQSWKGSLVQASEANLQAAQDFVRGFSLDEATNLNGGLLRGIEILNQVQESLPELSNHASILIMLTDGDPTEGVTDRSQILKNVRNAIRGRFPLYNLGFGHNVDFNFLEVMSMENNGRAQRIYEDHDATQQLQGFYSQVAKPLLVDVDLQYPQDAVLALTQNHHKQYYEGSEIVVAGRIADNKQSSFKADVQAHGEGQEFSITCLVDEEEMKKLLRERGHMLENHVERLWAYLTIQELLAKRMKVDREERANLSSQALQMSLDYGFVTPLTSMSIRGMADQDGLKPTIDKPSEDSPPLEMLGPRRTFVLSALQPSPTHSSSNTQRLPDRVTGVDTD

[2] = biological target: T2, Recombinant human heavy chain 1 (rHC1) D298A mutant (human, UniProt P19827 35-672, D298A); test: as above; settings: both partners purified
T2 construct: source: mutation by QuikChange
T2 sequence (looked up): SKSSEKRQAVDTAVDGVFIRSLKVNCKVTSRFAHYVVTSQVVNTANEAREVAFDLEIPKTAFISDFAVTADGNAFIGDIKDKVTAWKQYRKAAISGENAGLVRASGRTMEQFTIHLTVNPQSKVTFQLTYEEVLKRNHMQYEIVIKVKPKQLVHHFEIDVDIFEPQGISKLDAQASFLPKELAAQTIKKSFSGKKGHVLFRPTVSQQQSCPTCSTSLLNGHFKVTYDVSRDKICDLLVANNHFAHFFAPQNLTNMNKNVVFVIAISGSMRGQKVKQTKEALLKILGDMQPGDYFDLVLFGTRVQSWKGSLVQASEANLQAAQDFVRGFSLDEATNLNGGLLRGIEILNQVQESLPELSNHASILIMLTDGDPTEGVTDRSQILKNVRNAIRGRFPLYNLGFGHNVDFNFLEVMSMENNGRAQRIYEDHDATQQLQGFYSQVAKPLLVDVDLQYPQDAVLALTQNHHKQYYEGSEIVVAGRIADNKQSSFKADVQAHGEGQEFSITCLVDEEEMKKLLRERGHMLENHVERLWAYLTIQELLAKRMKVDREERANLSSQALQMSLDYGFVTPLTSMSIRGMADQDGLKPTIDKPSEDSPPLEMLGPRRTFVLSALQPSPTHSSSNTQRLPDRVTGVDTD

B1: Link_TSG6 (recombinant Link module from human TSG-6) (domain or fragment, UniProt P98066 36-133, looked up)
chain: GVYHREARSGKYKLTYAEAKAVCEFEGGHLATYKQLEAARKIGFHVCAAGWMAKGRVGYPIVKPGPNCGFGKTGIIDYGIRLNRSERWDAYCYNPHAK
notes: TSG-6, human, Link module, residues 36-133 of the preprotein; also called Link domain
**Q.** Which Kd [1] does the source give for B1 here?
**A.** Its Kd is about 2 nM.

**Q.** Does B1 bind [2]?
**A.** Result: binds
